Test results as given in US10696678B2, “Kinase inhibitor, and preparing method and pharmaceutical use thereof” (GAN & LEE PHARMACEUTICALS, priority 2015, dated 2020).

Chains of the proteins cited; added tags and fusions are not shown. Lines headed by an entry give the natural chain unless they say otherwise; changes in a name come on top.
UniProt P11802: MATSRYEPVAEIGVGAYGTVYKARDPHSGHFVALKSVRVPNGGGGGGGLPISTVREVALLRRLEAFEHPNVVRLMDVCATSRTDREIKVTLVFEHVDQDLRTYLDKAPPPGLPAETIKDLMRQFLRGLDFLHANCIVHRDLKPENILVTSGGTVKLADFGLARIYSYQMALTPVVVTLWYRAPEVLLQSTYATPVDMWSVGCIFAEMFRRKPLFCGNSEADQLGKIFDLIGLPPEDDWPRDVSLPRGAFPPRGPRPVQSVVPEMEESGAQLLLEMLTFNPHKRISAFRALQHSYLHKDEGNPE
UniProt Q00534, whole entry: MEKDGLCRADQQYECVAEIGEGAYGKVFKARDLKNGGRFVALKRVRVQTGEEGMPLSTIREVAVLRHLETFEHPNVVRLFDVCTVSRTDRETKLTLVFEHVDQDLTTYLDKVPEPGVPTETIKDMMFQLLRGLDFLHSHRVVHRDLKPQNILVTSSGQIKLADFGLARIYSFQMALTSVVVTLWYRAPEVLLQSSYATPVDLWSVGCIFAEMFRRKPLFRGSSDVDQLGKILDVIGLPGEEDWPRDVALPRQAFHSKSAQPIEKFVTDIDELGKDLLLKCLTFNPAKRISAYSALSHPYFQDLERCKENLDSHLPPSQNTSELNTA

Experiments:
[1] = test system: human breast cancer cell line MDB-MA-231; experiment: Proliferation inhibition assay on human breast cancer cell line MDA-MB-231 (DAPI staining, In Cell Analyzer); type: cell-based; conditions: MDA-MB-231, 72 h, read-out: IC50 for inhibition of proliferation of human breast cancer cell line MDB-MA-231
CDK4/D3 = CDK4/D3 (Homo sapiens (Human), UniProt P11802); experiment: CDKs inhibition assay (ADP-Glo Kinase Assay), CDK4
CDK6/D3 = CDK6/D3 (Homo sapiens (Human), UniProt Q00534); experiment: CDKs inhibition assay (ADP-Glo Kinase Assay), CDK6

| Structure (SMILES) | IC50 [1] [µM] | IC50 (CDK4/D3) [µM] | IC50 (CDK6/D3) [µM] |
| --- | --- | --- | --- |
| CC1CCc2nc3c(F)cc(-c4nc(Nc5ccc(N6CCNCC6)cn5)ncc4F)cc3n21 (stereo not shown) [Example 59, 5-Fluoro-4-(5-fluoro-1-methyl-2,3-dihydro-1H-benzo[d]pyrrolo[1,2-a]imidazol-7-yl)-N-(5-(piperazin-1-yl)pyridin-2-yl)pyrimidin-2-amine] | 1.31 |  |  |
| CC1CN(c2ccc(Nc3ncc(F)c(-c4cc(F)c5nc6n(c5c4)C(C)CC6)n3)nc2)CCN1 (stereo not shown) [Example 53, 5-Fluoro-4-(5-fluoro-1-methyl-2,3-dihydro-1H-benzo[d]pyrrolo[1,2-a]imidazol-7-yl)-N-(5-(3-3-methylpiperazin-1-yl)pyridin-2-yl)pyrimidin-2-amine] | 0.6 |  |  |
| CC1CCc2nc3c(F)cc(-c4ccnc(Nc5ccc(N6CCNCC6)cn5)n4)cc3n21 (stereo not shown) [Example 72, 4-(5-Fluoro-1-methyl-2,3-dihydro-1H-benzo[d]pyrrolo[1,2-a]imidazol-7-yl)-N-(5-(piperazin-1-yl)pyridin-2-yl)pyrimidin-2-amine] | 0.817 | 0.0158 | 0.0099 |
| Fc1cnc(Nc2ccc(N3CCNCC3)cn2)nc1-c1cc(F)c2nc3n(c2c1)CCCCC3 [Example 17, 5-Fluoro-4-(4-fluoro-7,8,9,10-tetrahydro-6H-benzo[4,5]imidazo[1,2-a]azepan-2-yl)-N-(5-(piperazin-1-yl)pyridin-2-yl)pyrimidin-2-amine] | 0.555 | 0.236 | 0.0019 |
| CC1(C)CCc2nc3ccc(-c4nc(Nc5ccc(N6CCNCC6)cn5)ncc4F)cc3n21 [Example 25, 4-(1,1-Dimethyl-2,3-dihydro-1H-benzo[d]pyrrolo[1,2-a]imidazol-7-yl)-5-fluoro-N-(5-(piperazin-1-yl)pyridin-2-yl)pyrimidin-2-amine] | 0.145 |  |  |
| Cc1nc(Nc2ncc(F)c(-c3cc(F)c4nc5n(c4c3)C(C)CC5)n2)ccc1N1CCN(C)CC1 (stereo not shown) [Example 41, 5-Fluoro-4-(5-fluoro-1-methyl-2,3-dihydro-1H-benzo[d]pyrrolo[1,2-a]imidazol-7-yl)-N-(6-methyl-5-(4-methylpiperazin-1-yl)pyridin-2-yl)pyrimidin-2-amine] | 0.549 |  |  |
| CC1(C)Cc2nc3c(F)cc(-c4nc(Nc5ccc(N6CCNCC6)cn5)ncc4F)cc3n2C1 [Example 55, 5-Fluoro-4-(5-fluoro-2,2-dimethyl-2,3-dihydro-1H-benzo[d]pyrrolo[1,2-a]imidazol-7-yl)-N-(5-(piperazin-1-yl)pyridin-2-yl)pyrimidin-2-amine] | 0.377 | 0.004 | 0.0187 |
